{"sequences": {"note": "The chains behind the UniProt entries cited, without tags or fusion partners. Residues count along the entry.", "UniProt Q6IQ55, 21-284 limits assumed": "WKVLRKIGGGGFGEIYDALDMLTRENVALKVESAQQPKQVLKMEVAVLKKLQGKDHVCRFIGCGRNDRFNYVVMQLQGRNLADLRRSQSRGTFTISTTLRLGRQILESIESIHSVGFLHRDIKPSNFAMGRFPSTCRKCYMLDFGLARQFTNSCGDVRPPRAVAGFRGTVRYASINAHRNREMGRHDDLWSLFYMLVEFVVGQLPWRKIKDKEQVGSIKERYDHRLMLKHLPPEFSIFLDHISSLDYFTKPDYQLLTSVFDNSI", "UniProt Q6IQ55, whole entry": "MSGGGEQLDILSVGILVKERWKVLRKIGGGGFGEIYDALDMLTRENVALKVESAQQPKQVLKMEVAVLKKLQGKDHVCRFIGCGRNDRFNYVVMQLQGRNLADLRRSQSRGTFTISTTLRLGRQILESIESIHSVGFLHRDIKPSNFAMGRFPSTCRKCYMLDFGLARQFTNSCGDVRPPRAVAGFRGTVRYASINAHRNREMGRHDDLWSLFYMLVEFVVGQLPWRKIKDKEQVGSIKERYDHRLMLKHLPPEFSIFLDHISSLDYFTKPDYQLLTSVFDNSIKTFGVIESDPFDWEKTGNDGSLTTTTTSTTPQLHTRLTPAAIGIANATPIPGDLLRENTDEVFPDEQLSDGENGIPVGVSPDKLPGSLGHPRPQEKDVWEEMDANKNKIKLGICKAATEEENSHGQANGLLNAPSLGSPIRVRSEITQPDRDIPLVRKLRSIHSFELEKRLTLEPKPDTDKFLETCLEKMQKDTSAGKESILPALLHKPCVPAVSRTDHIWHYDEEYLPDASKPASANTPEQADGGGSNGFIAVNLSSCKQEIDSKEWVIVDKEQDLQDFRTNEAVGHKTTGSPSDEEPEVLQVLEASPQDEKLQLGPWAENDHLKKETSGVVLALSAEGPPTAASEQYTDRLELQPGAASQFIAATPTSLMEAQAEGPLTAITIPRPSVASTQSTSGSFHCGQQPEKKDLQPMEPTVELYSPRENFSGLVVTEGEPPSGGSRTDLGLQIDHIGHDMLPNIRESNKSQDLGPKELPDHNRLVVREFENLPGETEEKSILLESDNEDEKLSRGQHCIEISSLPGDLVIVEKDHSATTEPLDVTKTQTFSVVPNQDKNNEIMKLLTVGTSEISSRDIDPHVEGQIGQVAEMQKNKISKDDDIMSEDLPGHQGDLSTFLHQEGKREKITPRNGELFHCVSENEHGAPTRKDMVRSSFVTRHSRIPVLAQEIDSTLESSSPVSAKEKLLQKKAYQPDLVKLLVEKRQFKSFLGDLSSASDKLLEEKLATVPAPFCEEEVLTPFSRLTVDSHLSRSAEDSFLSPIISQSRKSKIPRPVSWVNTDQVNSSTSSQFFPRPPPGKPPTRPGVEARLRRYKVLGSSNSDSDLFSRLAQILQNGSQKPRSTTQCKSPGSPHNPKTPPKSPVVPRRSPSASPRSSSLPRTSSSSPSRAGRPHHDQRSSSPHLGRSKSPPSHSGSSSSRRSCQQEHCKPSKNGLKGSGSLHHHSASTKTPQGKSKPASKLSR", "UniProt Q5TCY1, whole entry": "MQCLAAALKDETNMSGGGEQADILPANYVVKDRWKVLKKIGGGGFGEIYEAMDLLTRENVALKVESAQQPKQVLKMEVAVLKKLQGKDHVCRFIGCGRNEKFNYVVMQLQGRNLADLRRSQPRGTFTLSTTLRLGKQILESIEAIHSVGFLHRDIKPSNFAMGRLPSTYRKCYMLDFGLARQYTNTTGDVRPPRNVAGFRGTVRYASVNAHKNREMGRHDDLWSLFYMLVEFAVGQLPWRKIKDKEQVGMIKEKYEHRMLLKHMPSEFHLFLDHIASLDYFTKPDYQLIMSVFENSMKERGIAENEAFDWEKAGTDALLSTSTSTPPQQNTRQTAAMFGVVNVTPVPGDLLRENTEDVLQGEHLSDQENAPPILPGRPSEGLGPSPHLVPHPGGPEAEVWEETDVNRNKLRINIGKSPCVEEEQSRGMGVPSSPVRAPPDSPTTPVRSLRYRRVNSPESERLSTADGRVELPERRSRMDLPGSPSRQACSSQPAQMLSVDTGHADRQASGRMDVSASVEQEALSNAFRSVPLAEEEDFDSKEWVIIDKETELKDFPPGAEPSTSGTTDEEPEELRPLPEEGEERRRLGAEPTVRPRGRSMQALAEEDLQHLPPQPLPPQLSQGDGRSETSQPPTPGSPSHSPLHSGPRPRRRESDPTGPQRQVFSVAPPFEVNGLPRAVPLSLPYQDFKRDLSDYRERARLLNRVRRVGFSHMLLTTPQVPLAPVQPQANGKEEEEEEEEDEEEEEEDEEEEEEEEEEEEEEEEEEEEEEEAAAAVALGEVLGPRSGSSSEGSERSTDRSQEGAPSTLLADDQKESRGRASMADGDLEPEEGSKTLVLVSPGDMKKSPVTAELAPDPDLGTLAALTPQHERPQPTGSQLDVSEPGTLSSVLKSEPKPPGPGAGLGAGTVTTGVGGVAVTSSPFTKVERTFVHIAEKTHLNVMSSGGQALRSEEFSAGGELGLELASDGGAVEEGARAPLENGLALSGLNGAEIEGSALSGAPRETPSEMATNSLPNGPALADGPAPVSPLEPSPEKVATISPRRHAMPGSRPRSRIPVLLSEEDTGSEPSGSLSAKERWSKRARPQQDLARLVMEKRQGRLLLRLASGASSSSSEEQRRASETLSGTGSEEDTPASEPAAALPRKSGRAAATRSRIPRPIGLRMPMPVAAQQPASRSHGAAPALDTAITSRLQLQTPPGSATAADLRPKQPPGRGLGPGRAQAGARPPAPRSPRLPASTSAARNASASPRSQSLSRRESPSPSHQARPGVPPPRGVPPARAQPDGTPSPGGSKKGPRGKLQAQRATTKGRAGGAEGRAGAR", "UniProt P48730, whole entry": "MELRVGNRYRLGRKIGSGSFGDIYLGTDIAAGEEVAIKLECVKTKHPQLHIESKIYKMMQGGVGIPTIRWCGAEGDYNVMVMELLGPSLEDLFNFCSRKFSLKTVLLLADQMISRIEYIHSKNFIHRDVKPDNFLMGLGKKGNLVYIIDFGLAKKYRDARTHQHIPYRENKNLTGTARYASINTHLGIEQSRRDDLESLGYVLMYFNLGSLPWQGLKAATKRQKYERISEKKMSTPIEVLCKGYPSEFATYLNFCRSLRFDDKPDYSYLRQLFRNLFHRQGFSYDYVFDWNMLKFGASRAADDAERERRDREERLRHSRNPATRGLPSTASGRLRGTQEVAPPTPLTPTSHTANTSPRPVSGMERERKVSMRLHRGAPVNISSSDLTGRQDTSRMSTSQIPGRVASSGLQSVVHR", "UniProt O75716, whole entry": "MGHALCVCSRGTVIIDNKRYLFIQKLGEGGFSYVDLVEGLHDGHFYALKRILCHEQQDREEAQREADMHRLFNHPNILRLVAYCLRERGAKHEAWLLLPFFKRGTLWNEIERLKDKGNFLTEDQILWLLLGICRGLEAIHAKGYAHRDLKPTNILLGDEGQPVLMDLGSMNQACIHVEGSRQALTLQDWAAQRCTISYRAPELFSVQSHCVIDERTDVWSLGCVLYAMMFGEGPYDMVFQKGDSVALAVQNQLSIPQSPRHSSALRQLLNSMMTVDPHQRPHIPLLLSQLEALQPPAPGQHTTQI", "UniProt P45985, whole entry": "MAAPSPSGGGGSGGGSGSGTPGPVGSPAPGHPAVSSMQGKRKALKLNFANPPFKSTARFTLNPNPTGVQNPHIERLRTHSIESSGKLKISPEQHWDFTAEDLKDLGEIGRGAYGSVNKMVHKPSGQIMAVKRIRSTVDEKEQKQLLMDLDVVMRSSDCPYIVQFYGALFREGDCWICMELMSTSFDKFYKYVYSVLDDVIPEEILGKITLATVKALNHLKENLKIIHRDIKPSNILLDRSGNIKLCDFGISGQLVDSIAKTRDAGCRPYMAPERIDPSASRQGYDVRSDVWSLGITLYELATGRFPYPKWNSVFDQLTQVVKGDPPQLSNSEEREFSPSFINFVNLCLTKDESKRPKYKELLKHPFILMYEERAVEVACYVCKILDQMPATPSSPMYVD", "UniProt O96017, whole entry": "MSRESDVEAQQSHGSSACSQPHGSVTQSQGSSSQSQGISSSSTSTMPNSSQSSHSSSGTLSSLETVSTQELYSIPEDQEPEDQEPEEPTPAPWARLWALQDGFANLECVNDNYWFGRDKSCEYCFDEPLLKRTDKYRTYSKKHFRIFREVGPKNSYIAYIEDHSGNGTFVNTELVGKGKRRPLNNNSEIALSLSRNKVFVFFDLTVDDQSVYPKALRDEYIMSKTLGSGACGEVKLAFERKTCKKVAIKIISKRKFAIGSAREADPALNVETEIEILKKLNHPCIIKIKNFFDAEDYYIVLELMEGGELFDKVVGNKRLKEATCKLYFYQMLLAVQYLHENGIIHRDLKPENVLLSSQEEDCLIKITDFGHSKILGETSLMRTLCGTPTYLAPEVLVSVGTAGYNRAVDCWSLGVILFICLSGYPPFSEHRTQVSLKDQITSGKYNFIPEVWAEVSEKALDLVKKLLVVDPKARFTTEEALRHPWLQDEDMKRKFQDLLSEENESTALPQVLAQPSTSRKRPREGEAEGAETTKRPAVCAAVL", "UniProt O60331, whole entry": "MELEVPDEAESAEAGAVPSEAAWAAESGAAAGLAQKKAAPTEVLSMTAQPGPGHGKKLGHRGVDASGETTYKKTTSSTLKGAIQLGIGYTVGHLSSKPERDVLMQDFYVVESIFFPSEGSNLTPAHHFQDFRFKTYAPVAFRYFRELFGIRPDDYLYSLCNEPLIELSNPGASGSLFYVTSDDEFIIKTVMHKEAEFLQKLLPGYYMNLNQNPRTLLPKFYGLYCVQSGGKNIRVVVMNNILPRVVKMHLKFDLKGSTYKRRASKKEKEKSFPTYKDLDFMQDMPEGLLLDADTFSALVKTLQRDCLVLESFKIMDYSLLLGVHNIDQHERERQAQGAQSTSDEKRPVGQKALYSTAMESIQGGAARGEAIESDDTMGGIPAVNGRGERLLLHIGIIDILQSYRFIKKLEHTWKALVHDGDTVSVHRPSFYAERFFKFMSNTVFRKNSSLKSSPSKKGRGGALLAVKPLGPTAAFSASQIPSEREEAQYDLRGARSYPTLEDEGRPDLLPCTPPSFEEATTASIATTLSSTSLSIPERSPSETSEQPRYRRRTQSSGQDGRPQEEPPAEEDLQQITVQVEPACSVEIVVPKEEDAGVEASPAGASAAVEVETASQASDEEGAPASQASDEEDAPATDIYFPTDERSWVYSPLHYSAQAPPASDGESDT", "UniProt Q86YV6, whole entry": "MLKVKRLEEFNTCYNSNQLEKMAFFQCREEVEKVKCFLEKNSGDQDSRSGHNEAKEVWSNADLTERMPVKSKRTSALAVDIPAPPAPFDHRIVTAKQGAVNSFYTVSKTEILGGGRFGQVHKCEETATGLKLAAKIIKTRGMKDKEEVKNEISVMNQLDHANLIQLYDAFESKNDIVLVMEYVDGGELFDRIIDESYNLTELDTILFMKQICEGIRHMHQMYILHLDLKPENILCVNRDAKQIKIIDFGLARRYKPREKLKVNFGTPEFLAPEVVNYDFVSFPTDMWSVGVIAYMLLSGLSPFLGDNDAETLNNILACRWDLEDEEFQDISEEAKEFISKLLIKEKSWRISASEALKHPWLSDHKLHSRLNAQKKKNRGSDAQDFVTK", "UniProt Q6XUX3, whole entry": "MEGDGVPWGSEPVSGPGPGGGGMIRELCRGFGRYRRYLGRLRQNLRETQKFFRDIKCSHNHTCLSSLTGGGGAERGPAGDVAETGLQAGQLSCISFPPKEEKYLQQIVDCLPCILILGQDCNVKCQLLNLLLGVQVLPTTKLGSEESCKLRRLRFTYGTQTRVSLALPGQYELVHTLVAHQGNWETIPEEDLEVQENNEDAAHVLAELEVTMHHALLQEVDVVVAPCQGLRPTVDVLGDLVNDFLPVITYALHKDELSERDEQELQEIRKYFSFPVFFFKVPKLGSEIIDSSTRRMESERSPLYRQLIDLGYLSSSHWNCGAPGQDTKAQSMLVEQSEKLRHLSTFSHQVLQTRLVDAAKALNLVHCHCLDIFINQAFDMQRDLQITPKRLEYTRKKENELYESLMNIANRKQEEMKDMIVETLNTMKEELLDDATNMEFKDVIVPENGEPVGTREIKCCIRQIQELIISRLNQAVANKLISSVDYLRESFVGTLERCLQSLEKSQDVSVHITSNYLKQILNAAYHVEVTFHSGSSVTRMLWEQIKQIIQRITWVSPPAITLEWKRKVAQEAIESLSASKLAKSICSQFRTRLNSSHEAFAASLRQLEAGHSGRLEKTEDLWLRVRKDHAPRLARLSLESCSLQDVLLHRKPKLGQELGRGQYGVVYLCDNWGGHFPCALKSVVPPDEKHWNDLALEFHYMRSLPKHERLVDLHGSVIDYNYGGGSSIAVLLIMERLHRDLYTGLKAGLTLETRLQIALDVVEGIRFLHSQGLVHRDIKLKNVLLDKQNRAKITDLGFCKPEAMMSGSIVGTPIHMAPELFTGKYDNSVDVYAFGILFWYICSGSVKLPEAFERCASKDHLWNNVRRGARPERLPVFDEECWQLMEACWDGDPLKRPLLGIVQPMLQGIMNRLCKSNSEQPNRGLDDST"}, "source": "paper PMC10104807", "about": "“Modulation of tau tubulin kinases (TTBK1 and TTBK2) impacts ciliogenesis” (Scientific Reports, 2023)", "key": {"[1]": {"molecular_target": "TTBK2 kinase domain (Homo sapiens, UniProt Q6IQ55)", "experiment": "Thermal shift assay", "details": "kinase domain 2 µM, inhibitor 10 µM"}, "[2]": {"molecular_target": "NLuc-TTBK2 (Homo sapiens, UniProt Q6IQ55)", "experiment": "TTBK2 NanoBRET cellular target engagement assay in HEK293 cells", "type": "cell-based", "details": "read-out: TTBK2 intact cell NB IC50; intact HEK293 cells, 2 μM tracer 29"}, "[3]": {"molecular_target": "NLuc-TTBK1 (Homo sapiens, UniProt Q5TCY1)", "experiment": "TTBK1 NanoBRET cellular target engagement assay in HEK293 cells", "type": "cell-based", "details": "2 μM tracer 29"}, "[4]": {"test_system": "403 wild-type (WT) human kinases", "experiment": "DiscoverX scanMAX kinome-wide selectivity", "type": "binding", "details": "for # scanMAX kinases with PoC < 10: 1 μM; for S10(1 μM): share of 403 WT human kinases with PoC < 10 at 1 μM"}, "[5]": {"molecular_target": "CRIK (Homo sapiens, UniProt O14578)", "experiment": "Eurofins enzymatic radiometric kinase assay", "details": "read-out: CRIK IC50, ATP at Km"}, "[6]": {"molecular_target": "T1, CSNK1D (Homo sapiens, UniProt P48730)", "experiment": "Eurofins enzymatic radiometric kinase assay", "details": "read-out: CSNK1D IC50, ATP at Km"}, "[7]": {"molecular_target": "T2, STK16 (Homo sapiens, UniProt O75716)", "experiment": "Eurofins enzymatic radiometric kinase assay", "details": "read-out: STK16 IC50, ATP at Km"}, "[8]": {"molecular_target": "T3, CLK2 (Homo sapiens, UniProt P49760)", "experiment": "Eurofins enzymatic radiometric kinase assay", "details": "read-out: CLK2 IC50, ATP at Km"}, "[9]": {"molecular_target": "MKK4 (Homo sapiens, UniProt P45985)", "experiment": "Eurofins enzymatic radiometric kinase assay", "details": "read-out: MKK4 IC50, ATP at Km"}, "[10]": {"molecular_target": "CSNK1E (Homo sapiens, UniProt P49674)", "experiment": "Eurofins enzymatic radiometric kinase assay", "details": "read-out: CSNK1E IC50, ATP at Km"}, "[11]": {"molecular_target": "CHK2 (Homo sapiens, UniProt O96017)", "experiment": "Eurofins enzymatic radiometric kinase assay", "details": "read-out: CHK2 IC50, ATP at Km"}, "[12]": {"molecular_target": "T4, PIP5K1C (Homo sapiens, UniProt O60331)", "experiment": "Eurofins enzymatic radiometric kinase assay", "details": "read-out: PIP5K1C IC50, ATP at Km"}, "[13]": {"molecular_target": "PKD3 (Homo sapiens, UniProt O94806)", "experiment": "Eurofins enzymatic radiometric kinase assay", "details": "read-out: PKD3 IC50, ATP at Km"}, "[14]": {"molecular_target": "MEK4 (Homo sapiens, UniProt P45985)", "experiment": "DiscoverX scanMAX binding assay", "details": "1 μM"}, "[15]": {"molecular_target": "T1, CSNK1D", "experiment": "DiscoverX scanMAX binding assay", "details": "1 μM"}, "[16]": {"molecular_target": "T2, STK16", "experiment": "DiscoverX scanMAX binding assay", "details": "1 μM"}, "[17]": {"molecular_target": "T3, CLK2", "experiment": "DiscoverX scanMAX binding assay", "details": "1 μM"}, "[18]": {"molecular_target": "TAOK1 (Homo sapiens, UniProt Q7L7X3)", "experiment": "DiscoverX scanMAX binding assay", "details": "1 μM"}, "[19]": {"molecular_target": "T5, MYLK4 (Homo sapiens, UniProt Q86YV6)", "experiment": "DiscoverX scanMAX binding assay", "details": "1 μM"}, "[20]": {"molecular_target": "CHEK2 (Homo sapiens, UniProt O96017)", "experiment": "DiscoverX scanMAX binding assay", "details": "1 μM"}, "[21]": {"molecular_target": "MAP4K5 (Homo sapiens, UniProt Q9Y4K4)", "experiment": "DiscoverX scanMAX binding assay", "details": "1 μM"}, "[22]": {"molecular_target": "PRKD3 (Homo sapiens, UniProt O94806)", "experiment": "DiscoverX scanMAX binding assay", "details": "1 μM"}, "[23]": {"molecular_target": "T4, PIP5K1C", "experiment": "DiscoverX scanMAX binding assay", "details": "1 μM"}, "[24]": {"molecular_target": "T6, RIPK5 (Homo sapiens, UniProt Q6XUX3)", "experiment": "DiscoverX scanMAX binding assay", "details": "1 μM"}, "[25]": {"test_system": "primary cilia on human iPSCs", "experiment": "Cilia imaging on iPSCs", "details": "72 h starvation, inhibitor 0.1–1 μM for 24 h or 72 h"}, "[26]": {"molecular_target": "T5, MYLK4", "experiment": "RBC radiometric HotSpot kinase assay", "details": "read-out: MYLK4 IC50, Enzymatic, ATP at Km, 10-pt curve"}, "[27]": {"molecular_target": "YSK4 (Homo sapiens, UniProt Q56UN5)", "experiment": "RBC radiometric HotSpot kinase assay", "details": "read-out: YSK4 IC50, Enzymatic, ATP at Km, 10-pt curve"}, "[28]": {"molecular_target": "T6, RIPK5", "experiment": "RBC radiometric HotSpot kinase assay", "details": "read-out: RIPK5 IC50, Enzymatic, ATP at Km, 10-pt curve"}, "[29]": {"molecular_target": "PAK6 (Homo sapiens, UniProt Q9NQU5)", "experiment": "DiscoverX scanMAX binding assay", "details": "1 μM"}, "[30]": {"molecular_target": "TAOK3 (Homo sapiens, UniProt Q9H2K8)", "experiment": "DiscoverX scanMAX binding assay", "details": "1 μM"}, "[31]": {"molecular_target": "PAK7 (Homo sapiens, UniProt Q9P286)", "experiment": "DiscoverX scanMAX binding assay", "details": "1 μM"}, "[32]": {"molecular_target": "MAP3K3 (Homo sapiens, UniProt Q99759)", "experiment": "DiscoverX scanMAX binding assay", "details": "1 μM"}, "[33]": {"molecular_target": "MAP3K2 (Homo sapiens, UniProt Q9Y2U5)", "experiment": "DiscoverX scanMAX binding assay", "details": "1 μM"}, "[34]": {"molecular_target": "PAK4 (Homo sapiens, UniProt O96013)", "experiment": "DiscoverX scanMAX binding assay", "details": "1 μM"}}, "note": "“And” between values parts separate entries of the source, which are not always exact repeats. Equal entries are not always repeated. Where two headings read alike, the source gives them in different places.", "data": [{"smiles": "CCC(O)(C#Cc1ccc2[nH]c3c(c2c1)-c1nc(N)ncc1CCC3)CC", "values": [{"measurement": "ΔTm TTBK2", "setting": "[1]", "result": 7.7, "unit": "°C"}, {"measurement": "IC50", "setting": "[2]", "result": 6400, "unit": "nM"}, {"measurement": "IC50", "setting": "[3]; read-out: TTBK1 intact cell NB IC50, intact HEK293 cells", "result": 12700, "unit": "nM"}, {"measurement": "IC50", "setting": "[3]; read-out: TTBK1 permeabilized cell NB IC50, permeabilized HEK293 cells (digitonin)", "result": "< 4100 nM and 2110 nM"}, {"measurement": "# scanMAX kinases with PoC < 10", "setting": "[4]", "result": 7}, {"measurement": "S10(1 μM)", "setting": "[4]", "result": 0.017}, {"measurement": "IC50", "setting": "[5]", "result": "> 10000", "unit": "nM"}, {"measurement": "IC50", "setting": "[6]", "result": 420, "unit": "nM"}, {"measurement": "IC50", "setting": "[7]", "result": 300, "unit": "nM"}, {"measurement": "IC50", "setting": "[8]", "result": 2800, "unit": "nM"}, {"measurement": "IC50", "setting": "[9]", "result": "> 10000", "unit": "nM"}, {"measurement": "IC50", "setting": "[10]", "result": 820, "unit": "nM"}, {"measurement": "IC50", "setting": "[11]", "result": 4100, "unit": "nM"}, {"measurement": "IC50", "setting": "[12]", "result": 2100, "unit": "nM"}, {"measurement": "IC50", "setting": "[13]", "result": 1100, "unit": "nM"}, {"measurement": "MEK4 (MKK4) % control at 1000nM / DiscoverX PoC value", "setting": "[14]", "result": 3.5, "unit": "% control"}, {"measurement": "CSNK1D % control at 1000nM / DiscoverX PoC value", "setting": "[15]", "result": 21, "unit": "% control"}, {"measurement": "STK16 DiscoverX PoC value", "setting": "[16]", "result": 28, "unit": "% control"}, {"measurement": "CLK2 DiscoverX PoC value", "setting": "[17]", "result": 27, "unit": "% control"}, {"measurement": "TAOK1 % control at 1000nM / DiscoverX PoC value", "setting": "[18]", "result": 24, "unit": "% control"}, {"measurement": "MYLK4 % control at 1000nM / DiscoverX PoC value", "setting": "[19]", "result": 2.4, "unit": "% control"}, {"measurement": "CHEK2 (CHK2) % control at 1000nM / DiscoverX PoC value", "setting": "[20]", "result": 22, "unit": "% control"}, {"measurement": "MAP4K5 % control at 1000nM / DiscoverX PoC value", "setting": "[21]", "result": 21, "unit": "% control"}, {"measurement": "PRKD3 (PKD3) % control at 1000nM / DiscoverX PoC value", "setting": "[22]", "result": 0, "unit": "% control"}, {"measurement": "PIP5K1C % control at 1000nM / DiscoverX PoC value", "setting": "[23]", "result": 0, "unit": "% control"}, {"measurement": "RIPK5 % control at 1000nM / DiscoverX PoC value", "setting": "[24]", "result": 4.1, "unit": "% control"}, {"measurement": "percentage of ciliated cells / expression of primary cilia", "setting": "[25]", "result": "time- and dose-dependent response"}, {"measurement": "IC50", "setting": "[26]", "result": "90 nM and < 100 nM"}, {"measurement": "IC50", "setting": "[27]", "result": "51 nM and < 100 nM"}, {"measurement": "IC50", "setting": "[28]", "result": 1300, "unit": "nM"}]}, {"smiles": "CCC(C)(O)C#Cc1ccc2[nH]c3c(c2c1)-c1nc(N)ncc1CCC3", "note": "(racemic)", "values": [{"measurement": "ΔTm TTBK2", "setting": "[1]", "result": 7.4, "unit": "°C"}, {"measurement": "# scanMAX kinases with PoC < 10", "setting": "[4]", "result": 22}, {"measurement": "S10(1 μM)", "setting": "[4]", "result": 0.055}, {"measurement": "PAK6 % control at 1000nM", "setting": "[29]", "result": 6.7, "unit": "% control"}, {"measurement": "MEK4 (MKK4) % control at 1000nM / DiscoverX PoC value", "setting": "[14]", "result": 5.5, "unit": "% control"}, {"measurement": "CSNK1D % control at 1000nM / DiscoverX PoC value", "setting": "[15]", "result": 8.2, "unit": "% control"}, {"measurement": "TAOK3 % control at 1000nM", "setting": "[30]", "result": 7.8, "unit": "% control"}, {"measurement": "PAK7 % control at 1000nM", "setting": "[31]", "result": 1.8, "unit": "% control"}, {"measurement": "TAOK1 % control at 1000nM / DiscoverX PoC value", "setting": "[18]", "result": 3.1, "unit": "% control"}, {"measurement": "MYLK4 % control at 1000nM / DiscoverX PoC value", "setting": "[19]", "result": 0.6, "unit": "% control"}, {"measurement": "CHEK2 (CHK2) % control at 1000nM / DiscoverX PoC value", "setting": "[20]", "result": 4.4, "unit": "% control"}, {"measurement": "MAP3K3 % control at 1000nM", "setting": "[32]", "result": 6.1, "unit": "% control"}, {"measurement": "MAP4K5 % control at 1000nM / DiscoverX PoC value", "setting": "[21]", "result": 9.6, "unit": "% control"}, {"measurement": "MAP3K2 % control at 1000nM", "setting": "[33]", "result": 2.2, "unit": "% control"}, {"measurement": "PAK4 % control at 1000nM", "setting": "[34]", "result": 4.3, "unit": "% control"}, {"measurement": "PIP5K1C % control at 1000nM / DiscoverX PoC value", "setting": "[23]", "result": 0, "unit": "% control"}, {"measurement": "RIPK5 % control at 1000nM / DiscoverX PoC value", "setting": "[24]", "result": 2.4, "unit": "% control"}]}]}
